Patent publication US7371207B2, “Estrogen receptor α regulated gene expression, related assays and therapeutics” (Wyeth, priority 2002, dated 2008)

Test system: gene expression in the pituitary
Assay: GeneChip microarray survey of E2 regulated gene expression, pituitary
Conditions: mouse, in vivo
From the text: One week later, the animals were ovariectomized.

**Q.** Which “Kallikrein-9 expression in pituitary” value does the source give for estrogen here?
**A.** induced
